Reference: ChEMBL document CHEMBL3393014, “Discovery of 5-(1H-indol-5-yl)-1,3,4-thiadiazol-2-amines as potent PIM inhibitors” (Bioorg Med Chem Lett, 2015)

Molecular target: Serine/threonine-protein kinase pim-3 (Homo sapiens, UniProt Q86V86)
Test: Inhibition of full length recombinant PIM3 (unknown origin) using biotinylated-BAD peptide as substrate assessed as phosphorylation at serine 112 after 45 mins by HTRF method

Nc1nnc(-c2ccc3[nH]cc(-c4cccc(N5CCCC5)n4)c3c2)s1
IC50: 15 nM
